Paper PMC3759966 (The Biochemical journal, 2009)

Biological target: T1, IKKε (Homo sapiens, UniProt Q14164)
T1 sequence (Q14164 1-716): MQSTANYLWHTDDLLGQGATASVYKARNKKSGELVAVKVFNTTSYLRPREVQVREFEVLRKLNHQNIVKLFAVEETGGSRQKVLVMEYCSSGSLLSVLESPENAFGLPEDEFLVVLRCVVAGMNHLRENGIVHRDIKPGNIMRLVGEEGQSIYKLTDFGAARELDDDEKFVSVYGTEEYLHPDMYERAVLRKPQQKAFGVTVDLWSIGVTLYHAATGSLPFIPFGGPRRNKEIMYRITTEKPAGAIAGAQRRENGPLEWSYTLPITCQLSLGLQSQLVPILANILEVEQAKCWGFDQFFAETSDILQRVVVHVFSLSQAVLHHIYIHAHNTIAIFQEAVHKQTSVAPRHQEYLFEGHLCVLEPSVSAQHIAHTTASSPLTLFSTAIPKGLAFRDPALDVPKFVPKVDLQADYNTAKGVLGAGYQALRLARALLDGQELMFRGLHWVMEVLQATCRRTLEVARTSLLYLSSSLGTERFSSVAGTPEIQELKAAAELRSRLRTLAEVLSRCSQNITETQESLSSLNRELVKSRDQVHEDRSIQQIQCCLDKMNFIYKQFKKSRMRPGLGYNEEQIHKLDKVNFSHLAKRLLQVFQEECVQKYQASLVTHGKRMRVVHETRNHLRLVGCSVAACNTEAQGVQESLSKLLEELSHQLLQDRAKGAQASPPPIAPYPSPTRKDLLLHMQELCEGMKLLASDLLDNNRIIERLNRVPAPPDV
Experiment: Kinase profiling panel
Assay type: biochemical
Settings: read-out: percentage of kinase activity compared with control

SMILES: CCN(CC)CCNC(=O)c1c(C)[nH]c(/C=C2\C(=O)Nc3ccc(F)cc32)c1C [Sunitinib, sunitinib]
- remaining activity at 0.1 µM: 101 ± 1%
